{"sequences": {"note": "Amino acid sequences for entries named in this document (tags omitted).", "UniProt P27361, whole entry": "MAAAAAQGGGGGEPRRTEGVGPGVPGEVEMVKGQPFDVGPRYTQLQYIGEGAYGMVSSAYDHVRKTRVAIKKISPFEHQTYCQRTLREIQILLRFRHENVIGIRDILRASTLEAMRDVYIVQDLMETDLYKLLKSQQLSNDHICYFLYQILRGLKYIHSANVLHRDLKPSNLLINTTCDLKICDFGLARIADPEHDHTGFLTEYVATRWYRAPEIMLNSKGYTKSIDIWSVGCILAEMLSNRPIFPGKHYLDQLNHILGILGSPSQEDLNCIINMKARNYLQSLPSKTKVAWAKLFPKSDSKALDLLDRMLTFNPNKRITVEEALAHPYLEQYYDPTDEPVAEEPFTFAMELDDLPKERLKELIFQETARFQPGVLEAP"}, "source": "patent US9896445B2", "about": "“Heterocyclic inhibitors of ERK1 and ERK2 and their use in the treatment of cancer” (Asana Biosciences, LLC, priority 2015, dated 2018)", "biological_target": "T1, ERK1 (Homo sapiens, UniProt P27361)", "T1 construct": "purchased Jubilant Biosys", "assay": "ERK1 HTRF (biochemical) assay", "method": "ERK1 and ERK2 HTRF (Biochemical) Assays\nThese assays employed a homogeneous time resolved fluorescence (HTRF) technique. […] The plate was incubated at room temperature for 60 min with shaking. […] The IC50 values (half maximal inhibitory concentration values) were subsequently determined using a sigmoidal dose-response curve (variable slope) in GraphPad Prism® 5 software."}
{"smiles": "O=C(Nc1cnn(-c2ccnc(Nc3cccnc3)n2)c1)N[C@H](CO)c1cccc(Cl)c1", "note": "[Compound 24, (S)-1-(1-(3-chlorophenyl)-2-hydroxyethyl)-3-(1-(2-(pyridin-3-yl-amino)pyrimidin-4-yl)-1H-pyrazol-4-yl)urea]", "values": [{"measurement": "IC50", "value": "< 50", "unit": "nM"}]}
